This passage reports EC50 results from US20200247889A1 (published 2020).

Chains of the proteins cited; added tags and fusions are not shown. Residues count along the entry.
UniProt Q9NP99, 21-234: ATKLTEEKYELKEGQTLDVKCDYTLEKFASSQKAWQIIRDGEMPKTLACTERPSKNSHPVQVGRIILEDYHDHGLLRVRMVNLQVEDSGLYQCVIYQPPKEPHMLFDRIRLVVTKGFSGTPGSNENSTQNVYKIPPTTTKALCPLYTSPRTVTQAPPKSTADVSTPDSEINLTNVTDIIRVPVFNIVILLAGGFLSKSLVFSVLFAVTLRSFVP

As a reminder, the EC50 is the concentration giving half of the maximal effect. A lower EC50 goes with an effect from little substance.

Test [1] concerns the target T1, human TREM1 (human, UniProt Q9NP99 21-234). Description: cell binding.
For test [2], the target named is T1, human TREM1. Briefly: flow cytometry cell binding.

B1: mAb0170 (antibody, V domains shown)
VH: EVQLVESGGGLVQPGGSLKLSCAASGFTFSTYAMHWVRQASGKGLEWVGRIRTKSSNYATYYAASVKGRFTISRDDSKNTAYLQMNSLKTEDTAVYYCTRDMGIRRQFAYWGQGTLVTVSS
VL: DIVLTQSPDSLAVSLGERATINCRASESVDTFDYSFLHWYQQKPGQPPKLLIYRASNLESGVPDRFSGSGSGTDFTLTISSLQAEDVAVYYCQQSNEDPYTFGQGTKLEIK
For B1, the EC50 in the test with human TREM1 [1] and with human TREM1 [2] was 0.06 nM throughout.

B2: Pi-8421 (antibody, V domains shown)
VH: EVQLVESGGGLVQPGGSLRLSCAASGFDISYSSIHWVRQAPGKGLEWVASIYSSYGSTYYADSVKGRFTISADTSKNTAYLQMNSLRAEDTAVYYCARYYYSHAGWYVSGYWPAIDYWGQGTLVTVSS
VL: DIQMTQSPSSLSASVGDRVTITCRASQSVSSAVAWYQQKPGKAPKLLIYSASSLYSGVPSRFSGSRSGTDFTLTISSLQPEDFATYYCQQSSYSLITFGQGTKVEIK
B2: the EC50 with human TREM1 [1] and in the test with human TREM1 [2] was 0.4 nM in each case.
